AlphaSeq binding of Ab-14 heavy chain variants to a spike HR2 peptide

Source: Li et al. 2023 (doi:10.1038/s41467-023-39022-2), MIT Lincoln Laboratory and A-Alpha Bio; data file from the FLAb repository.

Antigen: PDVDLGDISGINAS, a 14-residue peptide of the SARS-CoV-2 spike HR2 region.

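The parent was found by panning a naive human phage display library on the peptide. Designed CDR sequences, proposed from the first random library and measured here. Their group label is 14H_En_Gen (En: ensemble of fine-tuned language models; Gen: genetic algorithm). In AlphaSeq, yeast of one mating type display the scFv and yeast of the other type display the target. Pairs that bind mate more often; barcode pairs of the diploids are counted by sequencing. Scores were corrected for input abundance and mapped to Kd with protein pairs of known affinity run in the same pool. There are six technical replicates.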

Each scFv is VH, the linker GGGGSGGGGSGGGGS, VL, as in the parent Ab-14, and differs from it in the CDRs of the heavy chain only.
VH: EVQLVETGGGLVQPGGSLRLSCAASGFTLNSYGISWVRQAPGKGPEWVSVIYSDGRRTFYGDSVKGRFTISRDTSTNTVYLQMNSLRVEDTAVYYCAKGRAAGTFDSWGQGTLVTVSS
VL: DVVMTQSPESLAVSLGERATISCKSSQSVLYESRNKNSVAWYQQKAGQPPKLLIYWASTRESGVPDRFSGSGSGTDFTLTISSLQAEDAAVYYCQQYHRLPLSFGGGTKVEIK

Each variant is given by its three heavy chain CDRs, as the data file delimits them; those of the parent are GFTLNSYGIS, VIYSDGRRTFYGDSVK, GRAAGTFDS. Scale: log10 of Kd in nM, estimated from mating counts; low values are strong binders. Averages over replicates are reported, and they cover detected replicates only. An entry "n.d." has no value in the source: the pair was not observed among the diploids in that replicate. This suggests poor binding but is not conclusive. As a blank, each scFv also met three strains without target: over all heavy chain designs, 1% of these pairings were detected, typically at 2.08 and seldom below 0.84. The control count says in how many pairings with the empty strains this scFv gave a signal, with their mean in brackets. The authors' rule: three or more of the six replicates give a measured affinity, fewer mean a poor binder. The parent sequence was in this pool as ten entries: three were never detected, three once, and four in most replicates, with averages from 0.34 to 2.37. The range of this assay differs from that of the first round, and the authors advise against merging the two.

| CDR-H1 | CDR-H2 | CDR-H3 | log10 Kd, replicates | log10 Kd (nM), mean | control signals |
|---|---|---|---|---|---|
| GFDLNEYGIS | VIYADGMRTAYADDVK | GNTAGTFDV | -0.55 / 0.16 / -0.93 / -1.16 / -0.76 / -0.56 | -0.63 | 0 of 18 |
| GFDLNEYGIS | VIYADGVRTAYQDSVK | GNVAGTFDL | -0.09 / -0.41 / -0.63 / -0.61 / -0.54 / -0.61 | -0.48 | 1 of 18 (2.63) |
| GFDLNEYGIS | VIYADGMRSYYADSVK | GNNAGTFDV | 0.27 / 0.03 / -0.35 / -0.04 / -0.35 / -0.07 | -0.09 | 0 of 18 |
| GFDLDEYGIS | VIYADGQRTAYADNVK | GQVAGTFDV | -0.55 / -0.05 / -0.80 / 0.37 / 0.01 / 1.30 | 0.05 | 0 of 18 |
| GFDLDEYGIS | VIYADGQRTAYADSVK | GNTAGTFDQ | -0.19 / -0.58 / -0.48 / -0.35 / -0.64 / -0.39 | -0.44 | 0 of 18 |
| GFDLDEYGIS | VIYADGQRTAYADNVK | GEVAGTFDI | 0.03 / -1.06 / -0.54 / -0.59 / -0.23 / -0.32 | -0.45 | 0 of 18 |
| GFDLNEYGIS | VIYADGMRTFYADNVK | GEVAGTFDI | -0.35 / -0.20 / 0.03 / -0.17 / 0.07 / -0.11 | -0.12 | 0 of 18 |
| GFDLNEYGIS | VIYADGMRTYYADSVK | GKNAGTFDV | -0.22 / -0.30 / -0.71 / -0.36 / -0.39 / -0.41 | -0.40 | 0 of 18 |
| GFDLNEYGIS | VIYADGKRTYYADDVK | GNQAGTFDV | 0.12 / -0.62 / -0.78 / -0.55 / -0.61 / -0.11 | -0.42 | 0 of 18 |
| GFDLNEYGIS | VIYADGKRTAYIDSVK | GNVAGTFDV | 0.58 / -0.01 / -0.40 / -0.09 / -0.30 / 0.51 | 0.05 | 0 of 18 |
| GFDLDEYGIS | VIYADGVRTAYADSVK | GENAGTFDI | n.d. / -0.69 / 0.42 / -0.75 / 0.41 / -0.30 | -0.18 | 0 of 18 |
| GFDLDEYGIS | VIYADGRRTAYADSVK | GENAGTFDM | -0.72 / -0.60 / -0.31 / -0.76 / -0.72 / -0.60 | -0.62 | 0 of 18 |
| GFDLNEYGIS | VIYADGVRTAYIDSVK | GQNAGTFDV | -0.12 / -0.27 / -0.45 / -0.49 / -0.30 / 0.00 | -0.27 | 0 of 18 |
| GFDLNEYGIS | VIYADGMRTAYADSVK | GNIAGTFDQ | -0.19 / -0.27 / -0.57 / -0.30 / -0.53 / -0.31 | -0.36 | 0 of 18 |
| GFDLNEYGIS | VIYADGKRTAYADSVK | GNTAGTFDT | -0.09 / 0.16 / -0.21 / -0.24 / -0.35 / -0.07 | -0.13 | 1 of 18 (3.46) |
| GFDLNEYGIS | VIYADGRRTAYADSVK | GHVAGTFDV | -0.78 / -0.75 / -0.60 / -0.87 / -1.08 / -0.86 | -0.82 | 0 of 18 |
| GFDLDEYGIS | VIYADGRRTAYADDVK | GNTAGTFDV | -0.50 / -0.67 / -0.79 / -0.25 / -0.58 / -0.68 | -0.58 | 0 of 18 |
| GFDLDEYGIS | VIYADGSRTAYADSVK | GEVAGTFDV | 0.02 / -0.10 / -0.12 / 0.28 / 0.41 / 0.14 | 0.10 | 0 of 18 |
| GFDLNEYGIS | VIYADGSRTAYADDVK | GENAGTFDI | 0.65 / -0.19 / -0.57 / -0.07 / 0.05 / 0.31 | 0.03 | 0 of 18 |
| GFDLDEYGIS | VIYADGKRTFYADSVK | GNQAGTFDV | -0.43 / -0.31 / -0.70 / -0.35 / -0.37 / -0.66 | -0.47 | 0 of 18 |
| GFDLDEYGIS | VIYADGMRTFYADSVK | GQVAGTFDV | -0.91 / -0.82 / -0.90 / -1.24 / -0.80 / -0.70 | -0.90 | 0 of 18 |
| GFDLNEYGIS | VIYADGMRTAYADNVK | GQVAGTFDV | -0.21 / -0.52 / -0.17 / -0.35 / -0.72 / -0.25 | -0.37 | 0 of 18 |
| GFDLDEYGIS | VIYADGMRTAYADSVK | GNEAGTFDQ | -0.20 / -0.48 / -1.31 / -0.76 / -0.54 / -0.46 | -0.62 | 1 of 18 (0.87) |
| GFDLNEYGIS | VIYADGRRTAYADSVK | GQNAGTFDQ | 0.03 / -0.50 / -0.76 / -0.61 / -0.48 / -0.36 | -0.45 | 0 of 18 |
| GFDLNEYGIS | VIYADGVRTAYADNVK | GETAGTFDV | 0.08 / 0.20 / -0.38 / -0.98 / -0.50 / 0.23 | -0.22 | 0 of 18 |
| GFDLNEYGIS | VIYADGKRTAYADDVK | GSNAGTFDI | n.d. / n.d. / n.d. / n.d. / n.d. / n.d. | n.d. | 0 of 18 |
| GFDLNEYGIS | VIYADGVRTAYADDVK | GNTAGTFDI | -0.91 / -1.03 / -0.87 / -0.97 / -1.21 / -0.83 | -0.97 | 0 of 18 |
| GFDLNEYGIS | VIYADGVRTAYADSVK | GNVAGTFDE | 0.04 / -0.06 / -0.09 / -0.05 / 0.10 / 0.00 | -0.01 | 0 of 18 |
| GFDLNEYGIS | VIYADGVRTFYADSVK | GENAGTFDQ | 1.53 / 1.09 / 1.00 / 0.74 / 1.62 / 1.56 | 1.26 | 1 of 18 (2.23) |
| GFDLNEYGIS | VIYADGRRTAYADSVK | GEQAGTFDV | -0.50 / 0.10 / 0.19 / -0.44 / -0.46 / -0.30 | -0.24 | 0 of 18 |
| GFDLNEYGIS | VIYADGQRTAYADSVK | GTNAGTFDL | 0.28 / -0.23 / -0.26 / -0.39 / -0.17 / -0.11 | -0.15 | 0 of 18 |
| GFDLNEYGIS | VIYADGMRTAYSDDVK | GEVAGTFDL | -0.43 / -0.50 / -0.67 / -0.76 / -0.47 / -0.47 | -0.55 | 1 of 18 (1.66) |
| GFDLNEYGIS | VIYADGVRSYYADSVK | GENAGTFDV | -0.54 / -0.41 / -0.47 / -0.29 / -0.48 / -0.29 | -0.41 | 0 of 18 |
| GFDLNEYGIS | VIYADGMRTAYSDSVK | GSNAGTFDL | -0.28 / -0.59 / -0.58 / -0.61 / -0.76 / -0.37 | -0.53 | 0 of 18 |
| GFDLNEYGIS | VIYADGVRKAYSDSVK | GEVAGTFDV | n.d. / -1.23 / n.d. / -0.18 / n.d. / -0.63 | -0.68 | 0 of 18 |
| GFDLDEYGIS | VIYADGKRTAYADNVK | GEVAGTFDV | -0.72 / -0.61 / -0.48 / -0.66 / -0.70 / -0.58 | -0.63 | 0 of 18 |
| GFDLNEYGIS | VIYADGMRTAYTDSVK | GNNAGTFDQ | n.d. / n.d. / n.d. / n.d. / n.d. / n.d. | n.d. | 0 of 18 |
| GFDLNEYGIS | VIYADGMRTAYVDDVK | GENAGTFDL | 0.36 / 0.38 / 0.24 / 0.61 / 0.07 / 0.18 | 0.31 | 0 of 18 |
| GFDLNEYGIS | VIYADGMRTFYADNVK | GNVAGTFDV | -0.55 / -1.05 / -1.01 / -1.07 / -1.16 / -0.82 | -0.94 | 0 of 18 |
| GFDLDEYGIS | VIYADGRRTAYADDVK | GNVAGTFDQ | 0.07 / -0.40 / -0.50 / -0.20 / -0.54 / 0.00 | -0.26 | 0 of 18 |
| GFDLNEYGIS | VIYADGMRTAYSDSVK | GEIAGTFDV | 0.06 / -0.25 / -0.48 / -0.58 / -0.61 / -0.21 | -0.34 | 0 of 18 |
| GFDLDEYGIS | VIYADGMRTAYSDSVK | GNNAGTFDV | 0.46 / 0.95 / 0.46 / 0.66 / 0.25 / 1.08 | 0.64 | 0 of 18 |
| GFDLNEYGIS | VIYADGKRTAYADSVK | GDNAGTFDV | -0.11 / 0.29 / 0.02 / -0.22 / 0.18 / -0.22 | -0.01 | 0 of 18 |
| GFDLDEYGIS | VIYADGVRKAYADDVK | GNNAGTFDV | -0.39 / -0.57 / -0.42 / -0.59 / -0.33 / -0.31 | -0.44 | 2 of 18 (1.87) |
| GFDLDEYGIS | VIYADGQRTAYTDSVK | GTNAGTFDV | -0.52 / n.d. / n.d. / n.d. / n.d. / n.d. | -0.52 | 0 of 18 |
| GFDLEDYGIS | VIYADGRRTAYADSVK | GQNAGTFDV | 0.26 / 0.26 / 0.22 / -0.01 / 0.33 / 0.07 | 0.19 | 1 of 18 (2.60) |
| GFDLNEYGIS | VIYADGKRTFYADDVK | GENAGTFDV | -0.53 / -0.25 / -0.78 / -0.68 / -0.85 / -0.52 | -0.60 | 1 of 18 (2.51) |
| GFDLNEYGIS | VIYADGKRTAYADSVK | GNVAGTFDS | n.d. / n.d. / n.d. / n.d. / n.d. / n.d. | n.d. | 0 of 18 |
| GFDLNEYGIS | VIYADGKRTAYADSVK | GNVAGTFDQ | -0.37 / -0.37 / -0.49 / -0.85 / -0.75 / -0.69 | -0.58 | 0 of 18 |
| GFDLNEYGIS | VIYADGQRTYYADSVK | GQNAGTFDV | 0.07 / -0.13 / -0.53 / -0.23 / 0.04 / 0.05 | -0.12 | 0 of 18 |
| GFDLNEYGIS | VIYADGMRTYYADNVK | GEVAGTFDV | n.d. / n.d. / n.d. / n.d. / n.d. / n.d. | n.d. | 0 of 18 |

The last 5 entries again:

| CDR-H1 | CDR-H2 | CDR-H3 | log10 Kd, replicates | log10 Kd (nM), mean | control signals |
|---|---|---|---|---|---|
| GFDLNEYGIS | VIYADGKRTFYADDVK | GENAGTFDV | -0.53 / -0.25 / -0.78 / -0.68 / -0.85 / -0.52 | -0.60 | 1 of 18 (2.51) |
| GFDLNEYGIS | VIYADGKRTAYADSVK | GNVAGTFDS | n.d. / n.d. / n.d. / n.d. / n.d. / n.d. | n.d. | 0 of 18 |
| GFDLNEYGIS | VIYADGKRTAYADSVK | GNVAGTFDQ | -0.37 / -0.37 / -0.49 / -0.85 / -0.75 / -0.69 | -0.58 | 0 of 18 |
| GFDLNEYGIS | VIYADGQRTYYADSVK | GQNAGTFDV | 0.07 / -0.13 / -0.53 / -0.23 / 0.04 / 0.05 | -0.12 | 0 of 18 |
| GFDLNEYGIS | VIYADGMRTYYADNVK | GEVAGTFDV | n.d. / n.d. / n.d. / n.d. / n.d. / n.d. | n.d. | 0 of 18 |